The record followed here is ChEMBL document CHEMBL1141517, “Separate synthesis and evaluation of glucitol bis-phosphate and mannitol bis-phosphate, as competitive inhibitors of fructose bis-phosphate aldolases” (Bioorg Med Chem Lett, 2008).

Molecules are shown by their SMILES.

Test [1] is filed under the species Oryctolagus cuniculus. As to conditions: Muscle tissue.
Test [2] deals with Helicobacter pylori.
The test system of test [3] is Saccharomyces cerevisiae.

As to `O=C(COP(=O)(O)O)[C@H](O)[C@H](O)[C@@H](O)COP(=O)(O)O`, the Km worked out at 20 µM in test [1], 20 µM in test [2] and 200 µM in test [3].

By Km is commonly meant the concentration of substrate that gives half-maximal velocity.
